Measured values as given in patent US10556905B2, “Processes for preparing a diazabicyclooctane compound” (priority 2012, dated 2020).

The chains behind the UniProt entries cited, without tags or fusion partners. Residues count along the entry.
UniProt Q9F663, 25-293, looked up: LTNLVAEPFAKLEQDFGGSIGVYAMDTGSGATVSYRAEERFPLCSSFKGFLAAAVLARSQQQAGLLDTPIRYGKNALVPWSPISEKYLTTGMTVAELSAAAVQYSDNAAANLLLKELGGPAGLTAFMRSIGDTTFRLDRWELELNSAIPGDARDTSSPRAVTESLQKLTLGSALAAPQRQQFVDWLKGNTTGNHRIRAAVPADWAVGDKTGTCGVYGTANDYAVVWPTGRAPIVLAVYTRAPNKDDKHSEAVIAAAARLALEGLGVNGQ

Molecular target: T1, KPC-2 (Klebsiella pneumoniae, UniProt Q9F663)
T1 construct: AmpC, TEM-1, KPC-2 or OXA-2 domain excluding signal peptide was amplified with PCR; made in house; host or cells: Escherichia coli BL21 (DE3), pET-28b(+)
Experiment: β-Lactamase inhibitory activity (nitrocefin hydrolysis), KPC-2
Assay type: biochemical

O=C(NC1CCNCC1)[C@@H]1CC[C@@H]2CN1C(=O)N2OS(=O)(=O)O [MK-7655, reference compound] gave a pIC50 of 6.00 to 7.00.

pIC50: −log10 of the molar value.
